Values of other authors as cited in US11124517B2, “Crystal form of Baricitinib and preparation method thereof” (CRYSTAL PHARMACEUTICAL (SUZHOU) CO., LTD., priority 2017, dated 2021).

Test system: JAK1 and JAK2
Conditions: cited from earlier work

For `CCS(=O)(=O)N1CC(CC#N)(n2cc(-c3ncnc4[nH]ccc34)cn2)C1` [Baricitinib], the “Selectivity for JAK1 and JAK2 over JAK3” value is listed as 100 fold.
